Molecular target: T1, Caspase-3 (Homo sapiens, UniProt P42574)
T1 sequence (P42574 whole entry): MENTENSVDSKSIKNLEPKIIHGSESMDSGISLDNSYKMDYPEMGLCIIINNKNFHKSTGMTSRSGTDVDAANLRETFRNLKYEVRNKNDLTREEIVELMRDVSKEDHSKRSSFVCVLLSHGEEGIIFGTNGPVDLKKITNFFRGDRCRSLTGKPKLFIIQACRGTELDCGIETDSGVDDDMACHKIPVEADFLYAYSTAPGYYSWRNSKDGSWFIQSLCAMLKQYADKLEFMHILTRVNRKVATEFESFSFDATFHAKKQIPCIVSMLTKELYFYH

SMILES: CC(=O)N[C@@H](CC(=O)O)C(=O)N[C@@H](CCC(=O)O)C(=O)N[C@H](C(=O)N[C@H](C=O)CC(=O)O)C(C)C [(4S)-4-{[(1S)-1-{[(2S)-1-carboxy-3-oxopropan-2-yl]carbamoyl}-2-methylpropyl]carbamoyl}-4-[(3S)-3-acetamido-3-formamidopropanoic acid]butanoic acid]
- Ki: 0.23 nM
